In US8957024B2, “Composition and methods for reducing opioid-induced pruritus” (priority 2011, dated 2015):
“Also recorded” adds a separate entry of the source.

Tested on: HEK 293 cells co-expressing MOR1 and GRPR
Assay: Calcium imaging, cells co-expressing MOR1 and GRPR
Assay type: cell-based, mouse

CN1CC[C@]23c4c5ccc(O)c4O[C@H]2[C@@H](O)C=C[C@H]3[C@H]1C5 [morphine]
calcium response to agonist: failed to evoke Ca2+ spikes; also recorded: unable to respond to morphine
